Data taken from article PMC7294525 (Cell Research, 2020).

Amino acid sequences for entries named in this document (tags omitted). Residues count along the entry.
UniProt Q66478, 1549-1731: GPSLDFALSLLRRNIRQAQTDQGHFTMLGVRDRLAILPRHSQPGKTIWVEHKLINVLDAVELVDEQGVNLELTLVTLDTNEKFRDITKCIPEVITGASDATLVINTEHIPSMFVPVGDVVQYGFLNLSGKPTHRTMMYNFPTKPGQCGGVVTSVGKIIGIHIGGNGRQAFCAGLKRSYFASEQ

How the values were obtained:
EV-A71 2A protease = target: T1, EV-A71 2A protease (Human enterovirus 71, UniProt Q66478); assay type: biochemical; settings: read-out: IC50 against EV-A71 2A protease
T1 sequence (Q66478 863-1012 limits assumed): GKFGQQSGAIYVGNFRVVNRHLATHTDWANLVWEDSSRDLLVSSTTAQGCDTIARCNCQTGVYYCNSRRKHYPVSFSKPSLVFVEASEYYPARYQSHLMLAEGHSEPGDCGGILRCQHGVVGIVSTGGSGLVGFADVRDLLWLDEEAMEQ

EV-A71 3C protease = EV-A71 3C protease (Human enterovirus 71, UniProt Q66478); assay type: biochemical; settings: read-out: IC50 against EV-A71 3C protease

Substance calpain inhibitor II [compound 61] has an IC50 (EV-A71 2A protease) greater than 20 µM and an IC50 (EV-A71 3C protease) greater than 20 µM.

Work on calpain inhibitor XII [compound 62] yielded an IC50 (EV-A71 2A protease) greater than 20 µM and an IC50 (EV-A71 3C protease) greater than 20 µM.
